Laboratory results published in patent US20260258035A1, “FIVE-MEMBERED AND SIX-MEMBERED NITROGEN-CONTAINING COMPOUND, AND INTERMEDIATE, PREPARATION METHOD AND USE THEREOF” (HANGZHOU SYNRX THERAPEUTICS BIOMEDICAL TECHNOLOGY CO., LTD., priority 2022, published 2026).

Protein sequences, listed by entry. Tags and fused reporters are not part of them.
UniProt Q86W56, whole entry: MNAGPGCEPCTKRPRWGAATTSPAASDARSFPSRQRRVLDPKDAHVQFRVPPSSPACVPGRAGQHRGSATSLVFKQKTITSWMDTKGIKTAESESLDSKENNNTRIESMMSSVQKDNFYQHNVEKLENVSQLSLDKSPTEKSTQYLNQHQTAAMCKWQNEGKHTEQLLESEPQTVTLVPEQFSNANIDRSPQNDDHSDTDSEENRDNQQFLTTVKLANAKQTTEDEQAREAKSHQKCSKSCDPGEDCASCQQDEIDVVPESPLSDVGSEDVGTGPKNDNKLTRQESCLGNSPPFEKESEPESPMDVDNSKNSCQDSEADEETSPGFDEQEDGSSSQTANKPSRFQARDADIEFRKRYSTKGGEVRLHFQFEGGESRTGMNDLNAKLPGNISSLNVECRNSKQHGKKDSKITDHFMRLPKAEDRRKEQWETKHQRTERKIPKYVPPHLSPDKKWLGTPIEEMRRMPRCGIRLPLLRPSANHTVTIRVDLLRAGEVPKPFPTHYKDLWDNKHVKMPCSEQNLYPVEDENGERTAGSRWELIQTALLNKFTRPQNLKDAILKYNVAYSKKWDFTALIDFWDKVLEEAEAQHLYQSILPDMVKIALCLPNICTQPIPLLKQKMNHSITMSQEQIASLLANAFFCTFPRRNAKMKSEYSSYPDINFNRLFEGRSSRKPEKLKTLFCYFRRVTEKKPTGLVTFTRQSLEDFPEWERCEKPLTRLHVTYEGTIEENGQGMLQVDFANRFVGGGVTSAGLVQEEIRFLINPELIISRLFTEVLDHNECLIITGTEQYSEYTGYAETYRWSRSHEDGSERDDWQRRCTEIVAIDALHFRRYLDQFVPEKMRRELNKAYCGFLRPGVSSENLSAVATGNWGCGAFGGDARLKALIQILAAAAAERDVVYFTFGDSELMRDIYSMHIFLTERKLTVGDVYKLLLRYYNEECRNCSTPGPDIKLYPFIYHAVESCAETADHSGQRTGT
UniProt O75469, whole entry: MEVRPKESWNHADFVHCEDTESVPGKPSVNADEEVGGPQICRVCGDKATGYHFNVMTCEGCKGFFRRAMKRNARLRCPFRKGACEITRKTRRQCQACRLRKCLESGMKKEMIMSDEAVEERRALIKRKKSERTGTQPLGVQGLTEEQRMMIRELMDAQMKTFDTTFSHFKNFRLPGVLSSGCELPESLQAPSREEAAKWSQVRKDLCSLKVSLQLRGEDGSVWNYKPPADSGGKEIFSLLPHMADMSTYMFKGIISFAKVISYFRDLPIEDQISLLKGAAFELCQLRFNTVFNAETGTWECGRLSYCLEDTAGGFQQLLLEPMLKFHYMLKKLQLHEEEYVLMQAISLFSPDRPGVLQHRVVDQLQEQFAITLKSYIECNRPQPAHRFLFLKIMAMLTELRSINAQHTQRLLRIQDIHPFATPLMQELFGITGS

Key:
PARG = PARG (Homo sapiens, UniProt Q86W56); test: Biochemical assay (PARG, TFMU-ADPr substrate); conditions: read-out: IC50 (nM) in biochemical assay
[1] = system: Human breast squamous carcinoma cells HCC1806; test: Cell function assay (In-Cell Western, PAR/pADPr after MMS); format: cell-based; conditions: read-out: IC50 (nM) in cell function assay
Description: 2. Cell Function Assay (In-Cell Western)
• 1) Human breast squamous carcinoma cells HCC1806 (ATCC) were seeded to the 384-well plate (Corning, #3764) at 20,000 cells/well, incubated for 24 h in a CO2 (5%) incubator at 37° C. to allow for complete adherence of the cells; • 2) 120 nL compounds or DMSO were added to the 384-well plate by Echo 550 (LABCYTE, #550) (final concentrations of compounds: 30000 nM, 10000 nM, 3000 nM, 1000 nM, 300 nM, 100 nM, 30 nM, 10 nM, 3 nM, 1 nM, 0 nM), and then the cells were incubated for 1 h in a CO2 (5%) incubator at 37° C.; • 3) 40 nL MMS (methyl mesylate, Sigma, #129925)(final concentration: 0.5 mM) was added to the plate by Echo 550, and the cells were treated for 1 h in a CO2 (5%) incubator at 37° C. 4) the culture medium was discarded, and the cells were fixed with 50 μL/well 3.7% paraformaldehyde for 20 min at room temperature; • 5) the cells were washed three times with PBST (136 mM NaCl, 2.6 mM KCl, 8 mM Na2HPO4, 2 mM KH2PO4, 0.05% Tween-20) buffer, each time 5 min; • 6) after fixation, the cells were permeabilized with 50 µL/well 0.3% Triton X-100 for 5 min at room temperature; • 7) the cells were washed three times with PBST (136 mM NaCl, 2.6 mM KCl, 8 mM Na2HPO4, 2 mM KH2PO4, 0.05% Tween-20) buffer, each time 5 min; • 8) after cell permeabilization, the cells were blocked with 50 μL/well 5% BSA for 90 min at room temperature; • 9) after cell blocking, the PAR/pADPr (R&D, #4335-MC-100) antibody (diluted 1:2000) was added at 25 µL/well to the cells and then incubated for 16 h at 4° C.; • 10) the cells were washed four times with PBST (136 mM NaCl, 2.6 mM KCl, 8 mM Na2HPO4, 2 mM KH2PO4, 0.05% Tween-20) buffer, each time 5 min; • 11) 800CW goat anti-mouse (diluted 1:200) (LiCRO, #926-32210) and DRAQ5 (diluted 1:200) (Cell Signaling Technology, #4084L) were added at 25 µL/well to the cells, and then incubated for 60 minutes at room temperature; • 12) the cells were washed four times with PBST (136 mM NaCl, 2.6 mM KCl, 8 mM Na2HPO4, 2 mM KH2PO4, 0.05% Tween-20) buffer, each time 5 min; • 13) PBS (136 mM NaCl, 2.6 mM KCl, 8 mM Na2HPO4, 2 mM KH2PO4) buffer was added to the cells, and Li-Cor Bioscience scanning was used for signal detection; • 14) the data were analyzed using GraphPad software to determine the IC50.

HCC1806 = test: Cell viability assay (CellTiter-Glo); format: cell-based, Human; conditions: read-out: IC50 (nM) in cell viability assay
Description: • 1) HCC1806 (Nanjing Cobioer, ATCC cell bank, 200 cells/well) was plated in the 96-well plate, and incubated for 24 h in a CO2 (5%) incubator at 37° C. to allow for complete adherence of the cells; • 2) media (100 L/well) containing the compounds (final concentrations of compounds: 30000 nM, 10000 nM, 3000 nM, 1000 nM, 300 nM, 100 nM, 30 nM, 10 nM, 3 nM, 1 nM, 0 nM) were added to the cells, and then, incubated for 7 days in the C02 (50%) incubator at 37° C.; • 3) the culture plate containing the cells was held at room temperature for 30 min to equilibrate the plate and its contents to room temperature; • 4) CellTiter-Glo (Promega: V9101) reagent (100 μL/well) was added to each well of cells, and the contents were mixed on an orbital shaker for 2 minutes; • 5) the plate was incubated at room temperature for 10 min to stabilize the signal, and detected by the microplate reader (Thermo: VarioskanLUX); • 6) data were analyzed using GraphPad software to determine the IC50.

PXR = PXR (Homo sapiens, UniProt O75469); test: PXR assay (DPX2 luciferase reporter cells); conditions: 24 h
Description: 1) Information of Cell Line
DPX2 (HepG2 cells stably transfected with PXR and luciferase reporter) cells were purchased from Puracyp Inc (Carlsbad, CA).
2) Experimental Procedures a) Reagents and Consumables
The DPX2 cells were cultured in the growth medium containing 1000 fetal bovine serum. The DPX2 cells in a T-75 flask were cultured in the […] incubator at 37° C. with 950% relative humidity, and digested when the cells grew to cover 80-90% of the bottom of the flask.
The surface layer of the T-75 cultured cells was washed with 10 mL of PBS; PBS was pipetted; 3-5 mL of tryp sin was added; the cells were digested at 37° C. for 5 minutes or until the cells were digested to be suspended; and excessive medium containing fetal bovine serum was added to stop trypsinization. […]
d) Quantitative Detection with PXR Activation
After 24 hours of dosing, the culture could be quantitatively detected with PXR activation. […] The cell culture plate was taken out from the incubator, and cooled slightly to room temperature; and the fluorescence value was determined with a fully automatic quantitative microplate reader, with the excitation light of 400 nm and the emission light of 505 nm. The ONE-Glo reagent was poured into the loading slot, with 25 μL per well, and the resulting mixture was gently mixed in the plate, and incubated at room temperature for 5 minutes to determine the luminescence value.

[2] = 4 nM PARG, 66.2 uM TFMU-ADPr, 3 min at room temperature
[3] = HCC1806, In-Cell Western, MMS treatment
[4] = HCC1806, compound 1 h then 0.5 mM MMS 1 h, PAR/pADPr antibody, In-Cell Western

Row | SMILES | IC50 (PARG; [2]) | IC50 (PARG; PARG, TFMU-ADPr substrate) | IC50 [1, 3] | IC50 [1, 4] | IC50 (HCC1806; HCC1806, 7 days, CellTiter-Glo) | PXR Activation @30 uM (Fold) (PXR) | PXR Activation @30 uM (% Ctrl) (PXR; positive control rifampicin) | IC50 (HCC1806)
1 | CC1(C(=O)N2CCN(c3cc(S(=O)(=O)NC4(C#N)CC4)cn4c(-c5nnc(C(F)F)s5)ncc34)C[C@H]2CF)CC1 | < 100 nM | 13.2 nM | 2.89 nM | < 100 nM | 500 to 5000 nM and 990 nM | – | – | –
2 | CC1(NS(=O)(=O)c2cc(N3CCN4C(=O)CCC4C3)c3cnc(-c4nnc(C(F)F)s4)n3c2)COC1 (stereo not shown) | – | 6.23 nM | – | – | 593 nM | 2.2 Fold | 12 % Ctrl | –
3 | Cn1cnc2c(-c3cc(S(=O)(=O)NC4(C#N)CC4)cn4c(-c5nnc(C(F)F)s5)ncc34)cccc21 | < 100 nM | 45.6 nM | – | – | – | – | – | –
4 | CC(C)C(=O)N1CCN(c2cc(S(=O)(=O)NC3(C#N)CC3)cn3c(-c4nnc(C(F)F)s4)cnc23)CC1 | < 100 nM | 1.99 nM | 22.4 nM | < 100 nM | – | – | – | 500 to 5000 nM and 456 nM

Where “and” joins values, the source holds several entries; their conditions need not be identical. Equal values may be shown once. Read-outs that look alike come from different tables or passages of the source.
